# pKi: −log10 of the molar value.
# The chains behind the UniProt entries cited, without tags or fusion partners.
# UniProt P03952, whole entry, looked up: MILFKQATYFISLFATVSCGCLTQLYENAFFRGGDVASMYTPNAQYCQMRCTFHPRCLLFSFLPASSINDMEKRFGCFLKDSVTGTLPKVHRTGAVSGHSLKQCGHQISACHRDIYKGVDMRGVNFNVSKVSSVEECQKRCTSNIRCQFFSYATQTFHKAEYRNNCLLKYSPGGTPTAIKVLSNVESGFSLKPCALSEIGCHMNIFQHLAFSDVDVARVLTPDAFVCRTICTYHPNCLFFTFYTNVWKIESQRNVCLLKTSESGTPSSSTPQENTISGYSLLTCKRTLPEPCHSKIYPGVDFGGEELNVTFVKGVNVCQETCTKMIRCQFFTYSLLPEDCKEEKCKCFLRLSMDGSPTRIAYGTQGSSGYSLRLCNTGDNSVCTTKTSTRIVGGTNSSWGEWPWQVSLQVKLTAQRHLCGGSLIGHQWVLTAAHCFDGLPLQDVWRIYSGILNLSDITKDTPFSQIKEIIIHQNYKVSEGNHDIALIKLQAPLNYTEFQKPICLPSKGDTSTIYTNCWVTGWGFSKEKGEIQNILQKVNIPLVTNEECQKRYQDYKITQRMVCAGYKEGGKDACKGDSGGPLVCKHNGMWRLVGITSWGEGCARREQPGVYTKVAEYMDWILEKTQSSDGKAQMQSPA
# Molecular target: purified human plasma kallikrein (Homo sapiens (Human), UniProt P03952)
# Details: read-out: Plasma Kallikrein Ki
compound,measurement,value
C[C@@H]1CCC[C@H](N2CCC(c3c(F)ccc(Cl)c3F)=CC2=O)c2cc(ccn2)-c2c(C#N)cccc2NC1=O [Example 217],pKi,6.81

# Source: patent US9409908B2 (priority 2012, dated 2016)
